Measurements reported in PubChem BioAssay AID2675 (National Center for Advancing Translational Sciences (NCATS), 2010).
Only a part is listed here, and it is no random draw. Records with an inconclusive call do not appear. Active and inactive are the calls of the source. Calls follow the shape of the dose curve; as a rule, active = well fitted inhibition curve with a large enough effect in the signal ratio, with a control signal flat (not every such curve was filed as active); inconclusive = small, poorly fitted or top-dose-only effect, or effect the other way, or a change in a side signal; inactive = no such curve, though single readings can be large or run the other way; the % refers to the signal ratio.

Chains of the proteins cited; added tags and fusions are not shown.
UniProt Q9NR56, whole entry: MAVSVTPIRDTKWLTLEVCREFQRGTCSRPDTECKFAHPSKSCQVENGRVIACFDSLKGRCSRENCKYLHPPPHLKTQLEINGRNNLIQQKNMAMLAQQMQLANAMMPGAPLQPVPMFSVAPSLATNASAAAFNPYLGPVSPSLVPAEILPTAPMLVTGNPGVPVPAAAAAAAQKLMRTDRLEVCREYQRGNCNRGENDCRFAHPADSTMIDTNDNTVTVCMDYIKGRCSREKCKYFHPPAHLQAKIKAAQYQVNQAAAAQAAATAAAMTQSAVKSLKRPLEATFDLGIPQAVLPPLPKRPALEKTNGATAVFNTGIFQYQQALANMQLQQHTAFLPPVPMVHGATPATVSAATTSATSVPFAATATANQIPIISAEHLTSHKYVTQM

Target: Muscleblind-like protein 1 (Homo sapiens) (UniProt Q9NR56)
Test: qHTS Assay for Inhibitors of MBNL1-poly(CUG) RNA binding
Details: TR-FRET MBNL1-His/biotin-(CUG)12 binding, 665/545 ratio; at 57.5 µM (top of the series) unless noted
% is scaled to controls: 0 for no effect and ±100 for the full control effect.

| Structure (SMILES) | activity change, negative = inhibition |
| --- | --- |
| Cc1cc(C)cc(OP(C)(=O)Nc2ccc(C)cc2C)c1 (configuration not stated) | inactive: -13.5% |
| COc1ccccc1OP(C)(=O)Nc1cccc(Br)c1 (configuration not stated) | inactive: -1.36% |
| Cc1cc(C)cc(OP(C)(=O)Nc2ccccn2)c1 (configuration not stated) | inactive: 3.93% |
| CP(=O)(Nc1cccc(Br)c1)Oc1ccccc1 (configuration not stated) | inactive: -9.75% |
| Cc1ccc(C)c(NP(C)(=O)Oc2ccccc2)c1 (configuration not stated) | inactive: -2.27% |
| CCCOc1ccc(NP(C)(=O)Oc2ccc(Cl)cc2)cc1 (configuration not stated) | inactive: -2.94% |
| CP(=O)(Nc1ccc(SC(F)(F)F)cc1)Oc1ccccc1 (configuration not stated) | inactive: -1.56% |
| COc1ccccc1OP(C)(=O)Nc1c(C)cccc1C (configuration not stated) | inactive: -5.29% |
| CN1CCCCC1COC(=O)C1(O)c2ccccc2CCc2ccccc21 (configuration not stated) | inactive: -23.9% |
| COc1ccccc1OP(C)(=O)Nc1ccccc1 (configuration not stated) | inactive: -2.43% |
| CP(=O)(Nc1ccccc1Br)Oc1ccccc1 (configuration not stated) | inactive: 6.7% |
| CP(=S)(Nn1cnnc1)Oc1ccccc1 (configuration not stated) | inactive: -7.74% |
| Cc1cc(C)cc(OP(C)(=O)Nc2ccc(SC(F)(F)F)cc2)c1 (configuration not stated) | inactive: 5.73% |
| CP(=O)(NC(=O)Nc1ccccc1)Oc1ccccc1 (configuration not stated) | inactive: -6.99% |
| CP(=O)(Oc1ccccc1)OC(c1ccccc1)C(F)(F)F (configuration not stated) | inactive: 2.27% |
| Cc1cccc(C)c1OP(C)(=O)Nc1ccc(SC(F)(F)F)cc1 (configuration not stated) | inactive: -4.5% |
| CP(=O)(Nc1ccc(SC(F)(F)F)cc1)Oc1ccc(Cl)cc1 (configuration not stated) | inactive: 6.88% |
| CP(=O)(Nc1ccccn1)Oc1ccc(Cl)cc1 (configuration not stated) | inactive: -5.98% |
| CCOP(C)(=S)SCC(=O)NC(C)C(=O)O (configuration not stated) | inactive: -9.98% |
| CCOC(=O)c1ccc(NP(C)(=O)Oc2ccc(OC)cc2)cc1 (configuration not stated) | inactive: -10.8% |
| CCN(CC)CCCOC(=O)C(O)(c1ccccc1)c1ccccc1 | inactive: 1.46% |

| Structure (SMILES) | activity change, negative = inhibition |
| --- | --- |
| Cc1cccc(C)c1OP(C)(N)=O (configuration not stated) | inactive: -4.73% |
| COc1ccc(OP(C)(=O)Nc2cccc(F)c2)cc1 (configuration not stated) | inactive: 0.321% |
| COc1ccccc1OP(C)(=O)Nc1cc(Cl)ccc1C (configuration not stated) | inactive: -1.92% |
| Cc1cc(C)cc(OP(C)(N)=O)c1 (configuration not stated) | inactive: -8.47% |
| CCOC(=O)c1ccc(NP(C)(=O)Oc2ccccc2)cc1 (configuration not stated) | inactive: -10.7% |
| COc1ccccc1OP(C)(=O)Nc1ccc(C)cc1 (configuration not stated) | inactive: 8.5% |
| COc1ccccc1OP(C)(=O)Nc1ccc(C)c(C)c1 (configuration not stated) | inactive: 23.8% |
| Cc1cc(C)cc(OP(C)(=O)Nc2cccc(C(F)(F)F)c2)c1 (configuration not stated) | inactive: -1.57% |
| CP(=O)(Nc1ccc(Cl)cc1Cl)Oc1ccccc1 (configuration not stated) | inactive: 3.54% |
| CP(=O)(OCCOc1ccccc1)OCCOc1ccccc1 | inactive: -4.23% |
| CN(C)CCOC(=O)C(O)(c1ccccc1)C1CCCC1 (configuration not stated) | inactive: -5.23% |
| COc1ccc(OP(C)(=O)Nc2ccccn2)cc1 (configuration not stated) | inactive: -12.9% |
| COc1ccccc1OP(C)(=O)Nc1ccc(Br)cc1 (configuration not stated) | inactive: 0.715% |
| CCc1ccc(OP(C)(=O)O)cc1 | inactive: -8.41% |
| COc1ccccc1OP(C)(=O)Nc1ccc(C)cc1C (configuration not stated) | inactive: -5.92% |
| CP(=O)(Nc1ccccn1)Oc1ccccc1 (configuration not stated) | inactive: -3.89% |
| Cc1c(NP(C)(=O)Oc2ccc(C(C)C)cc2)c(=O)n(-c2ccccc2)n1C (configuration not stated) | inactive: -22% |
| CCc1ccc(OP(C)(=O)Nc2cccnc2)cc1 (configuration not stated) | inactive: -1.97% |
| CP(=O)(Oc1ccccc1)N1CCOC1=O (configuration not stated) | inactive: -2.89% |
| O=C(OCCCN1CCCC1)C(O)(c1ccccc1)C1CCCCC1 (configuration not stated) | inactive: -6.37% |
| COc1ccccc1OP(C)(=O)Nc1c(C)n(C)n(-c2ccccc2)c1=O (configuration not stated) | inactive: -2.73% |

| Structure (SMILES) | activity change, negative = inhibition |
| --- | --- |
| CCN(CC)CC(O)COC(=O)C(O)(c1ccccc1)C1CCCCC1 (configuration not stated) | inactive: -3.27% |
| CP(=O)(Nc1ccc(Cl)cc1)Oc1ccc(F)cc1 (configuration not stated) | inactive: -11.2% |
| COc1ccccc1OP(C)(=O)Nc1ccccc1Br (configuration not stated) | inactive: -6.28% |
| CC(C)(C)c1ccc(OP(C)(=O)O)cc1 | inactive: 1.41% |
| CP(=O)(OC12CC3CC(CC(C3)C1)C2)OC12CC3CC(CC(C3)C1)C2 | inactive: -1.1% |
| CCOC(=O)c1ccc(NP(C)(=O)Oc2ccc(Cl)cc2)cc1 (configuration not stated) | inactive: -10.7% |
| COc1ccc(NP(C)(=O)Oc2ccccc2OC)cc1 (configuration not stated) | inactive: -8.2% |
| CN(C)CCOC(=O)C(O)(c1ccccc1)C1CCCCC1 (configuration not stated) | inactive: 4.09% |
| COc1ccc(OP(C)(=O)Nc2cccc(Br)c2)cc1 (configuration not stated) | inactive: -3.55% |
| CCOP(C)(=S)SCC(=O)NC(C)(CC)C(=O)O (configuration not stated) | inactive: -2.86% |
| CP(=O)(Nc1ccc(SC(F)(F)F)cc1)Oc1ccc(F)cc1 (configuration not stated) | inactive: -3.66% |
| Cc1ccccc1NP(C)(=O)Nc1ccccc1C | inactive: 3.22% |
| CP(=O)(Nc1ccc2c(c1)OCCO2)Oc1ccccc1 (configuration not stated) | inactive: -13.3% |
| CC(C)c1ccc(OP(C)(=O)Nc2ccc(SC(F)(F)F)cc2)cc1 (configuration not stated) | inactive: 1.73% |
| CP(=O)(Nc1ccccc1F)Oc1ccccc1 (configuration not stated) | inactive: 0.332% |
| COc1ccc(OP(C)(=O)Nc2ccc(SC(F)(F)F)cc2)cc1 (configuration not stated) | inactive: -12.7% |
| CCOC(=O)c1ccc(NP(C)(=O)Oc2ccc(F)cc2)cc1 (configuration not stated) | inactive: -11.6% [at 11.5 µM] |
| CCCCCOc1ccc(NP(C)(=O)Oc2ccc(Cl)cc2Cl)cc1 (configuration not stated) | inactive: -5.21% |
| CP(=O)(Nc1ccccc1)Oc1ccc(F)cc1 (configuration not stated) | inactive: 1.07% |
| CCN(CC)CCCOC(=O)C(O)(c1ccccc1)C1CCCCC1 (configuration not stated) | inactive: -3% |
